Laboratory results as given in US8653125B2, “Cyclohexane derivative having NPY Y5 receptor antagonism” (Shionogi Co., Ltd., priority 2009, dated 2014).

Amino acid sequences for entries named in this document (tags omitted).
UniProt O70342, whole entry: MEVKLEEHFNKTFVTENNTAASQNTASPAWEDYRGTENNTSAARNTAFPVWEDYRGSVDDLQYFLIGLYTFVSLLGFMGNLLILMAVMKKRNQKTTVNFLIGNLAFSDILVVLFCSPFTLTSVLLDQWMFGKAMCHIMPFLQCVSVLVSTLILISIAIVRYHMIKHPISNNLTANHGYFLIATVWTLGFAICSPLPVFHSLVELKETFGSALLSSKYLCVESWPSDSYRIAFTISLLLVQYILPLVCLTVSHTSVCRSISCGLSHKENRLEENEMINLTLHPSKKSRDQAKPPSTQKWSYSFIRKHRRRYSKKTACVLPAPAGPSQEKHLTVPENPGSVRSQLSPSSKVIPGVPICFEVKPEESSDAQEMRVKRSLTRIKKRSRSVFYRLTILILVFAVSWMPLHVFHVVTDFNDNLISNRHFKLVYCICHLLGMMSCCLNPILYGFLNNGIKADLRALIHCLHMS

Molecular target: mouse NPY Y5 receptor (Mus musculus (Mouse), UniProt O70342)
Test: Affinity for NPY Y5 receptor (Test Example 1-1), 125I peptide YY binding
Details: read-out: Binding IC50; inhibition of 125I peptide YY binding to membranes of CHO cells expressing mouse NPY Y5 receptor
Excerpt: cDNA sequence encoding mouse NPY Y5 receptor (Biochem. Biophys. Acta 1328: 83-89, 1997) was cloned in the expression vector (pME18S, Takebe et al. Mol. Cell. Biol. 8, 466-472). The obtained expression vector was transfected into CHO cells as a host according to the instruction manual using Lipofectamine reagent (Trademark, Gibco BRL Co., Ltd.). The cells that stably express NPY Y5 receptor were obtained.
The membrane samples prepared from the CHO cells expressing NPY Y5 receptor, the compound of the invention and 30,000 cpm ^125I peptide YY (60 pM of final concentration: Amersham) were incubated in the assay buffer (20 mM HEPES-Hanks buffer containing 0.1% bovine serum albumin, pH 7.4) at 25° C. for 2 hours. The membrane samples were then filtered from the mixture through a glassfilter (GF/C) presoaked with 1% polyethyleneimine. After washing with 50 mM Tris-HCl buffer (pH 7.4), radioactivity retained on the filters was determined using gamma counter. Non-specific binding was determined in the presence of 200 nM of peptide YY and the 50% inhibitory concentration (IC50 value) of the test compound for specific peptide YY binding was calculated (Inui, A. et al. Endocrinology 131, 2090-2096 (1992)).

SMILES: FC(F)(F)c1ccc(N[C@H]2CC[C@H](Cn3nncc3-c3ccccc3)CC2)nc1
- IC50: 3.8 nM
